# Apparent affinities of Ab-14 variants for a coronavirus HR2 peptide

The measurements come from Engelhart et al. 2022 (doi:10.1038/s41597-022-01779-4) through the FLAb antibody collection.

Target peptide (SARS-CoV-2 spike, HR2 region): PDVDLGDISGINAS

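Phage display of a naive human antibody library on the peptide gave the parent. In library AAYL50, one, two or three CDR residues were substituted; doubles and triples were drawn at random. In AlphaSeq, yeast of one mating type display the scFv and yeast of the other type display the target. Mating (16 h, 30 °C) was followed by selection of diploids and sequencing of their barcodes. Each replicate has its own calibration line, from reference interactions of the BCL2 family. There are three technical replicates.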

Ab-14 is the parent antibody, in scFv form: VH, then the linker GGGGSGGGGSGGGGS, then VL. The heavy chain is unchanged in all variants.
VH: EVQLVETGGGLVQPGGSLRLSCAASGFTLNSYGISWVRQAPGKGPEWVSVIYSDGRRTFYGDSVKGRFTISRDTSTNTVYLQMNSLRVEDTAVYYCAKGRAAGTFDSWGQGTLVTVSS
VL: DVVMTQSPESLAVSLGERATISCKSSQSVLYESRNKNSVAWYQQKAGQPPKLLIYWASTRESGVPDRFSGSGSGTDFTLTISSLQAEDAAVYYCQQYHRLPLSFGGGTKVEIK

Each variant's VL is given in full.
The Kd shown is the geometric mean over detected replicates; a lower Kd is a better binder.
"not detected" means that the variant was in the library but no mating with the target was seen in any replicate; the authors take this as a sign of poor binding, and no number exists.
Parent in this assay: reference entry 4.4 nM, copy in this library 48 nM.
Nonspecific signal, from three strains lacking the peptide, appeared in 18% of pairings of library AAYL50, centred on 15 µM (5% of these signals below 970 nM); values are not corrected for it. The control count says in how many pairings with the empty strains this scFv gave a signal.

Kd (apparent)	detected	empty controls	VL
2.5 µM	1/3	0/9	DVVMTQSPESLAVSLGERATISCKSSQSVLYESRNKNSVFWYQQKAGQPPKLLIYWVSFRESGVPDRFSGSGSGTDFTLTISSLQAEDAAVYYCQQYHRLPLSFGGGTKVEIK
11 µM	1/3	2/9	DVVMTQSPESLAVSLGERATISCKSSQSVLYESRNKDSRAWYQQKAGQPPKLLIYWASTRESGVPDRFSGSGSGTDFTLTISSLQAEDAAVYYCQQYHRLPTSFGGGTKVEIK
not detected	0/3	0/9	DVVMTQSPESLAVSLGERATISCKSSQSVLYESRIKNSVAWYQQKAGQPPKLLIYWASTNESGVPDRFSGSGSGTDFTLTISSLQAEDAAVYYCQIYHRLPLSFGGGTKVEIK
21 nM	3/3	3/9	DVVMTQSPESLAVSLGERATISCKSSQGVLYESRNKNSVAWYQQKAGQPPKLLIYWASTREFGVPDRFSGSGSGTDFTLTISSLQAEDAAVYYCQQYHRLPLSFGGGTKVEIK
1.6 µM	1/3	1/9	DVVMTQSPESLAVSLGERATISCKSSQSVLYESYNKNSVAWYQQKAGQPPKLLIYWLSTRESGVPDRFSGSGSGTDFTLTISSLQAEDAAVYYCQQYHMLPLSFGGGTKVEIK
380 nM	1/3	3/9	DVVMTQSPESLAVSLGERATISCKSSQSYLYESRNKNSVAWYQQKAGQPPKLLIYWASTRFSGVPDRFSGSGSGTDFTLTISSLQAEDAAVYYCGQYHRLPLSFGGGTKVEIK
not detected	0/3	3/9	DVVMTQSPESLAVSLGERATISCWSSQSVLYESRNKNSVAWYQQKAGQPPKLLIYWASTGESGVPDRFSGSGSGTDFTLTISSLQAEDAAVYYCQQYHRRPLSFGGGTKVEIK
not detected	0/3	0/9	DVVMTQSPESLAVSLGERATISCKFSQSVLYGSRNKNSVAWYQQKAGQPPKLLIYWASERESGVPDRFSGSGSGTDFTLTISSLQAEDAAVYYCQQYHRLPLSFGGGTKVEIK
7.7 nM	3/3	6/9	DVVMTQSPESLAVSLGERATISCKSSQSVLYEGRMKNSVAWYQQKAGQPPKLLIYKASTRESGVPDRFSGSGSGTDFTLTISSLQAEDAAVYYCQQYHRLPLSFGGGTKVEIK
27 µM	1/3	3/9	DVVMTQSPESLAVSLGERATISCKSSQHVLYHSRNKNSVIWYQQKAGQPPKLLIYWASTRESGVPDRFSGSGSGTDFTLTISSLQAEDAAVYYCQQYHRLPLSFGGGTKVEIK
22 nM	3/3	0/9	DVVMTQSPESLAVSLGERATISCKSSQSVLYESRNKASVAWYQQKAGQPPKLLIYWASTRESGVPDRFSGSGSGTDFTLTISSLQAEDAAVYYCYRYHRLPLSFGGGTKVEIK
4.2 nM	3/3	5/9	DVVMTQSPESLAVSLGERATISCKSSQSKLYESFNKNSVAWYQQKAGQPPKLLIYWASVRESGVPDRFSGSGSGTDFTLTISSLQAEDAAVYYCQQYHRLPLSFGGGTKVEIK
not detected	0/3	0/9	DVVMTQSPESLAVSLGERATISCKSSQSVLYESYNGNSVAWYQQKAGQPPKLLIYWASTRESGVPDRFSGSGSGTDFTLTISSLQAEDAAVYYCQQAHRLPLSFGGGTKVEIK
280 nM	3/3	4/9	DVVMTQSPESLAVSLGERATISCKSSESVLYTSRNKNSVAWYQQKAGQPPKLLIYWASTRESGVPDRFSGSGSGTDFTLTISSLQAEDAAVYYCQQYHRLPLFFGGGTKVEIK
not detected	0/3	0/9	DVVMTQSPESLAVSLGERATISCKSSQSNLYEDRNKNSVAWYQQKAGQPPKLLIYWASTREWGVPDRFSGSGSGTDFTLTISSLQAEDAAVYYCQQYHRLPLSFGGGTKVEIK
not detected	0/3	0/9	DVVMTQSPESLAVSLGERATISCKSSQQVLYESRNKNSVDWYQQKAGQPPKLLIYWASTRESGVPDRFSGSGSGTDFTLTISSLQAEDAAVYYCQIYHRLPLSFGGGTKVEIK
7.0 µM	1/3	2/9	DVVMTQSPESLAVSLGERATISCKSSQSVLYDSKNKNSRAWYQQKAGQPPKLLIYWASTRESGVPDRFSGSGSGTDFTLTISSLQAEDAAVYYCQQYHRLPLSFGGGTKVEIK
41 nM	3/3	0/9	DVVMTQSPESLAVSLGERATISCKSSRSKLYESRNKNSVAWYQQKAGQPPKLLIYWASTRESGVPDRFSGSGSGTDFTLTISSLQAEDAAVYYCQQYHSLPLSFGGGTKVEIK
not detected	0/3	0/9	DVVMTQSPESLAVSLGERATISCKSSQSVLYISRNKNSIAWYQQKAGQPPKLLIYWASTRESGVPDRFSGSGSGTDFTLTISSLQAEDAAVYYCQQYHRLPLSFGGGTKVEIK
13 µM	1/3	1/9	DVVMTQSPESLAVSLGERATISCKSSQSVLYENRNKNSGAWYQQKAGQPPKLLIYFASTRESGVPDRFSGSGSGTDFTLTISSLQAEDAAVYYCQQYHRLPLSFGGGTKVEIK

For reference, 3 entries of the list once more:

VL,Kd (apparent),detected,empty controls
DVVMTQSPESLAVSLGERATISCKSSESVLYTSRNKNSVAWYQQKAGQPPKLLIYWASTRESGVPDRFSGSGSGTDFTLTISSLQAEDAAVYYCQQYHRLPLFFGGGTKVEIK,280 nM,3/3,4/9
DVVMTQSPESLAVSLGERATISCKSSQSVLYESRNKNSVFWYQQKAGQPPKLLIYWVSFRESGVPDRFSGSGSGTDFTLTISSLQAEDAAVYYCQQYHRLPLSFGGGTKVEIK,2.5 µM,1/3,0/9
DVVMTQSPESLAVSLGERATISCKSSQGVLYESRNKNSVAWYQQKAGQPPKLLIYWASTREFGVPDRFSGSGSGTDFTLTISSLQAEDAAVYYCQQYHRLPLSFGGGTKVEIK,21 nM,3/3,3/9